CCT modulator: cytosolic chaperonin activity modulation; purified chaperonin ATPase assay, HTRF ADP detection, 30 min; activity change, % (no concentration beside the values), hits read low; 0.3% of 360,000 active; in the data active = activity change below about -30%; note: % is set by controls: 0 for no effect and ±100 for the full control effect
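We incubate TRiC, 40 or 20 nM final, with library compounds at 76 uM and 10 uM ATP for 30 min at 37 °C. ADP formed is detected with Transcreener HTRF reagents after 30 min at room temperature.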
Giardia killer: Giardia lamblia killing; AID 540267; 0.15% of 340,000 active; Giardia lamblia trophozoite viability; activity change, % at 7.66 µM, hits read low; in the data active = activity change below about -80%; inconclusive = between about -30% and that limit;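 note: parasites exposed to compound for two days anaerobically before the ATP read; % is set by controls: 0 for no effect and ±100 for the full control effect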
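Killing of trophozoites was scored by loss of ATP luminescence after a 48 hrs anaerobic exposure to compounds at 37 deg C, using 100 cells per well.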
Rango complex inh: inhibitors of Rango-importin beta complex formation; Q14974; Rango CFP/YFP FRET sensor + importin beta, 45 min; Potency, µM (highest dose often 92.2 µM), for the others: at the highest dose inhibition of complex formation; 0.031% of 340,000 active;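 note: potency is the fitted concentration of half-maximal effect; 0% = DMSO wells and 100% = buffer wells lacking importin beta; nearly all actives have a fitted effect of over 15% in size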
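Inhibition scored from the CFP 486 nm/YFP 530 nm FRET ratio 45 min after adding 0.125 microM importin beta to 50 nM Rango biosensor preincubated 5 min with compound (room temperature, PBS with DTT, Tween-20, BSA). No-importin wells as positive control.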
Mm-Cpn inhibitor: M. maripaludis TRiC chaperonin inhibition; purified Mm-Cpn ATPase, ADP Transcreener TR-FRET; Potency, µM (titrated, usually from 76.9 µM), inactives show top-dose activity, negative = inhibition, actives largely listed as inhibitors; 0.031% of 330,000 active; active = well fitted inhibition curve with a large enough effect; inconclusive = small, poorly fitted or top-dose-only effect; note: potency is the fitted concentration of half-maximal effect; % is set by controls: 0 for no effect and ±100 for the full control effect; nearly all actives have a fitted effect of over 80% in size
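Purified archaeal Mm-CPN (25nM final) preincubated 10 min at 37degC with compound, then 10uM ATP for 30 min at 37degC; ADP measured by HTRF Transcreener TR-FRET; buffer 30 mM TRIS pH 7.4, 100mM KCl, 5mM MgCl2, 1mM DTT.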
Rango dissoc inh: inhibition of RanGTP-driven Rango-importin beta dissociation. 0.071% of 340,000 active. O95149+P62826. Potency, µM (series often up to 46.1 µM), for inactives: at the highest dose activity change, negative = inhibition. Biochemical FRET Rango-importin beta, RanGTP-induced dissociation; note: potency is the fitted concentration of half-maximal effect; % of control where 0% means no effect; nearly all actives have a fitted effect of over 45% in size
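Two FRET readings bracket the reaction: one 5 min after compound meets Rango–importin beta, another 45 min after RanGTP-RCC1 (0.6 uM Ran, 0.2 uM RCC1, 2 mM GTP) is added. Only the second defines inhibition.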
The depositor's hits bear a star; i = inactive; ? = inconclusive; / = no result given; [ ] = another dose, or the depositor's remark. Only some compounds are listed: those with a hit (about 0.53% of all), similar ones and a draw of the others. Unless noted, calls come from the whole dose curve.

SMILES	CCT modulator	Giardia killer	Rango complex inh	Mm-Cpn inhibitor	Rango dissoc inh
COc1ccc2c3n([n+]([O-])c2c1)CCN=C3c1ccc(C)cc1	-1	-90*	0%	-4%	3%
COc1ccc2c3n([n+]([O-])c2c1)CCN=C3c1cc(Cl)c(N)c(Cl)c1	1	-93*	4%	-5%	-18%
COc1ccc(C2=NCCn3nc4cc(OC)ccc4c32)cc1	-4	-6	3%	0%	1%
COc1ccccc1C1NC(c2ccc3c(c2)OCO3)=CC(c2cc(Br)ccc2O)N1 (configuration not stated)	/	6	/	/	/
O=S(=O)(c1ccc(F)cc1)N1CCN(c2nc(-c3ccc(F)cc3)nc3cc(Cl)ccc23)CC1	/	-1	/	/	/
COc1ccc(C2CC(O)(c3ccccc3)Oc3c(C)ccc(C(C)C)c32)cc1 (configuration not stated)	/	9	/	/	/
COC(=O)C1CCN(CCCOc2ccc(CN3CCN(c4ccc([N+](=O)[O-])cc4)CC3)cc2)CC1	0	24	0%	3%	6%
COC(=O)C1CCN(c2ccc([N+](=O)[O-])cc2)CC1	-66*	8	-2%	-3%	-6%
O=C(Nc1ncc(Cc2ccccc2)s1)C1CCN(C(=O)c2ccco2)CC1	/	-18	/	/	/
NS(=O)(=O)c1ccc(N=Nc2c[nH]c(=O)c(O)c2)cc1	-1	4	?	-11%	23µM*
CCOc1cccc(C2C=C(c3ccc4c(c3)OCO4)NC(c3ccc(Br)cc3)N2)c1O (configuration not stated)	/	-14	/	/	/
Fc1cccc(CNc2ncnc3ccc(-c4ccccc4Cl)cc23)c1	/	/	/	1%	/
O=C(CSc1nnc2ccc(-c3ccccn3)nn12)Nc1cccc(F)c1	-45*	/	/	/	/
COc1ccccc1-c1sc2cc3c(cc2c1-c1ccc2c(c1)OCO2)OCO3	0	-8	-1%	18µM*	18%
O=C(Nc1nc(-c2cccs2)cs1)c1ccc(S(=O)(=O)N2CCCCC2)cc1	-1	5	-3%	45µM*	18%
O=C(Nc1nc(-c2cccs2)cs1)c1cccc(S(=O)(=O)N2CCCCCC2)c1	-3	-11	-3%	?	12%
CCOc1cccc(C(=O)Nc2nc(-c3ccc(S(=O)(=O)N4CCOCC4)cc3)cs2)c1	2	-9	65µM*	?	-5%
O=C(COc1cccc(Cl)c1)Nc1nc(-c2ccc(S(=O)(=O)N3CCOCC3)cc2)cs1	-3	-22	0%	40µM*	1%
O=C(Nc1nc(-c2ccncc2)cs1)c1ccc(S(=O)(=O)N2CCOCC2)cc1	-8	-8	-1%	-1%	1%
OCCNc1nc(-c2cccs2)nc2ccccc12	/	-17	/	/	/
COc1ccccc1NC(=O)Nc1cccc(C(=O)O)c1	-50*	3	-1%	2%	10%
NC(=O)c1ccccc1N/C=C/C(=O)c1ccco1	-60*	11	?	-3%	?
CCOc1ccccc1C(=O)NCc1ccc2c(c1)OCO2	2	10	-1%	-2%	1%
CCOc1cccc2cc(-c3nnc(NCc4ccc5c(c4)OCO5)s3)c(=O)oc12	-1	13	?	2%	1.3µM*
CCOC(=O)N=Nc1c2ccccc2c2nc3no[nH]c3nc12	-1	-96*	4%	2%	-1%
CCOC(=O)N=Nc1c(O)n(CC(=O)OC)c2ccccc12	3	-6	3%	1%	2%
O=C(CSc1ncnc2ccccc12)c1ccc2c(c1)OCCO2	-2	-3	?	20µM*	-22%
CCc1nc(SCC(=O)c2ccc3c(c2)OCCO3)c2ccccc2n1	-2	8	?	i	?
O=C(CSc1nnc(SCc2cccc3ccccc23)s1)Nc1ccc(C(=O)O)cc1	-1	0	-5%	1%	1%
O=C(CSc1nnc(SCc2cccc3ccccc23)s1)c1ccc2c(c1)OCO2	-27	-9	-5%	45µM*	-2%
COc1ccc(C#Cc2cnc(Cl)c3cncnc23)cc1OC	/	i	/	/	/
Cc1ccc(S(=O)(=O)N2CCN(c3nc(-c4cscn4)nc4ccccc34)CC2)cc1	/	6	/	/	/
CC(=O)N(/C=C1\SC(=S)N(c2ccccc2)C1=O)c1ccccc1	0	14	?	0%	16µM*
COc1ccc(C(CNC(=O)c2oc3ccc(Br)cc3c2C)N2CCCCC2)cc1 (configuration not stated)	-1	-6	-2%	3%	1.5µM*
COc1ccc(C(CNC(=O)c2oc3cc(Br)ccc3c2C)N2CCCCC2)cc1 (configuration not stated)	1	?	-1%	-10%	11%
CCC1CCc2sc(C(=O)NCC(c3ccc(OC)cc3)N3CCCC3)cc2C1 (configuration not stated)	-2	-2	58µM*	2%	30%
COc1ccc(C(CNC(=O)c2cccc(S(=O)(=O)Nc3ccccc3OC)c2)N2CCCC2)cc1 (configuration not stated)	-51*	-5	-1%	0%	0%
Nc1ncnc2c1nc(Cl)n2[C@@H]1O[C@H](CO)[C@@H](O)[C@@H]1O	/	-10	/	/	/
O=[N+]([O-])c1nn(-c2ccccc2)n(O)c1=NCc1ccc2c(c1)OCO2	-1	-16	-3%	0%	2%
Cc1ccc(CN=c2c([N+](=O)[O-])nn(-c3ccc4c(c3)OCCO4)n2O)cc1	-4	-87*	2%	2%	-4%
O=[N+]([O-])c1nn(-c2ccc3c(c2)OCCO3)n(O)c1=NCCCO	0	?	-1%	-16%	-5%
COc1ccc(-n2nc([N+](=O)[O-])c(=NCc3ccc4c(c3)OCO4)n2O)cc1	-2	-92*	-3%	0%	0%
COc1ccc2sc(-c3ccc(S(C)(=O)=O)cc3)c(C(=O)NCCc3c[nH]c4ccccc34)c2c1	2	34	1%	28µM*	-13%
COC(=O)c1c(-c2ccc(OC)cc2)sc2ccc(OC)cc12	-4	-21	3%	45µM*	1%
COC(=O)c1c(-c2ccc(OC)cc2)sc2ccc(-c3ccc4c(c3)OCO4)cc12	-73*	-15	2%	-5%	7%
CCCN1CNc2c(c(=O)[nH]c(=S)n2CCc2cc(OC)cc(OC)c2)C1	/	10	/	/	/
S=c1[nH]c(=S)c2[nH]cnc2[nH]1	/	9	/	/	/
Cc1ccc(S(=O)(=O)N(C)CCN(C)c2nc(-c3cccs3)nc3ccccc23)cc1	/	10	/	/	/
N#Cc1ccc2c(c1)C[C@]1(c3ccsc3)Oc3c(c(=O)oc4ccccc34)C2O1	/	/	/	0%[15.4 µM]	/
O=C(c1ccc2c(=O)n(-c3ccccc3)c(=O)[nH]c2c1)N1CCN(Cc2cccs2)CC1	/	0	/	/	/
COc1ccc(CC(=O)N(C)CC(=O)Nc2ccccc2SC)cc1	-46*	5	0%	0%	-7%

Sorted by count of non-hydrogen atoms (smallest number first): part of the list above.
SMILES	CCT modulator	Giardia killer	Rango complex inh	Mm-Cpn inhibitor	Rango dissoc inh
O=[N+]([O-])c1nn(-c2ccc3c(c2)OCCO3)n(O)c1=NCCCO	0	?	-1%	-16%	-5%
COc1ccc(CC(=O)N(C)CC(=O)Nc2ccccc2SC)cc1	-46*	5	0%	0%	-7%
Cc1ccc(S(=O)(=O)N(C)CCN(C)c2nc(-c3cccs3)nc3ccccc23)cc1	/	10	/	/	/

Gathered by group: the entries above containing fluorine
SMILES	CCT modulator	Giardia killer	Rango complex inh	Mm-Cpn inhibitor	Rango dissoc inh
O=S(=O)(c1ccc(F)cc1)N1CCN(c2nc(-c3ccc(F)cc3)nc3cc(Cl)ccc23)CC1	/	-1	/	/	/
Fc1cccc(CNc2ncnc3ccc(-c4ccccc4Cl)cc23)c1	/	/	/	1%	/
O=C(CSc1nnc2ccc(-c3ccccn3)nn12)Nc1cccc(F)c1	-45*	/	/	/	/
